{"sequences": {"note": "Amino acid sequences for entries named in this document (tags omitted). A change or cut given only in a name is not applied to a line headed by its entry.", "UniProt P20618": "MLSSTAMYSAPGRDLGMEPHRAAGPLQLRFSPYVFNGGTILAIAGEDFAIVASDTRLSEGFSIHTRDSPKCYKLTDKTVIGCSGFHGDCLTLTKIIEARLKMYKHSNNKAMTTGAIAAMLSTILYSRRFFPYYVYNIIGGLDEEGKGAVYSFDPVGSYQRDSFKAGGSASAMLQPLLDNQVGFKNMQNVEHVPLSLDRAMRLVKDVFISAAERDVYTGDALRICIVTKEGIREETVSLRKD", "UniProt P28074": "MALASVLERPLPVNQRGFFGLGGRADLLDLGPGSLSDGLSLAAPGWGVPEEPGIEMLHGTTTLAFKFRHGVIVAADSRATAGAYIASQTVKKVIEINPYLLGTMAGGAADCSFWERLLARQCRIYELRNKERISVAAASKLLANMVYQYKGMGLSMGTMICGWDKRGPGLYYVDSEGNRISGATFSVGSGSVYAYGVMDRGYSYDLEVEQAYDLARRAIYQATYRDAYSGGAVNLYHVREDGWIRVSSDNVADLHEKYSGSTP"}, "source": "patent US8609610B2", "about": "“Inhibitors of the trypsin-like site of the proteasome and methods of use thereof” (Trustees of Dartmouth College, priority 2011, dated 2013)", "key": {"[1]": {"tested_on": "T1, chymotrypsin-like sites (β5) of proteasome in MM cells", "T1 construct": "other: NCI-H929; bortezomib 100 nM 1 h; bortezomib 11 nM 1 h; bortezomib 3.7 nM 1 h; bortezomib 33 nM 1 h; other: NCI-H9", "experiment": "PROTEASOMEGLO assay of proteasome inhibition in MM cells", "type": "cell-based", "settings": "read-out: IC50 for sites: Chym-L", "protocol": "(§1) Proteasome inhibition in MM cells was measured with luminogenic substrates using PROTEASOMEGLO assay (Promega). […] An aliquot of culture was pelleted and medium was removed and replaced with PBS. The resulting cell suspension was mixed with luminogenic substrates in the manufacturer-provided lysis/assay buffer. After 3 minutes mixing on an orbital shaker, the plate was incubated in the dark for additional 17 minutes, followed by the measurements of the luminescence, performed in triplicate for each substrate/data point. Data were analyzed as for purified proteasomes. […] Cells (1×10^6 per well of a 6-well plate) were incubated with the inhibitors for 4 hours at 37° C. and this was followed by a 2 hour incubation with 5 μM BODIPY-TMR-epoxomicin. Subsequently, the medium was removed and the cells were washed with PBS and harvested. […] The supernatant was collected and the protein concentration was determined by the Bradford assay, and used to normalize gel loading. The samples were analysed by SDS-PAGE and fluorescent densitometry as described for competition experiment in cell lysates. IC50 values were calculated from three independent experiments using […] PRISM software."}, "[2]": {"biological_target": "caspase-like site of 26S proteasomes (Oryctolagus cuniculus, UniProt A0A5F9DQW2)", "experiment": "Inhibition of purified 26S proteasomes, substrate Ac-nLPnLD-amc", "type": "biochemical, rabbit", "settings": ">>30 no inhibition at 30 μM, >30 inhibition between 10 and 50% at 30 μM, read-out: IC50 for sites in 26S proteasomes: Casp-L", "protocol": "26S proteasomes were purified from rabbit muscle using known methods (Screen, et al. (2010) supra). […] NOVEX Bis-Tris gels (12%, Invitrogen) with MOPS running buffer were used for electrophoretic separation of catalytic subunits modified by active-site probes. Inhibition of active sites inside cells was assayed using luminescent PROTEASOMEGLO assay (Promega; Moravec, et al. (2009) Anal. Biochem. 387:294-302) according to known methods (Britton, et al. (2009) supra)."}, "[3]": {"biological_target": "T2, caspase-like sites (β1) of proteasome in MM cells (Homo sapiens, UniProt P28072+Q99436)", "T2 sequence (P28072 35-239)": "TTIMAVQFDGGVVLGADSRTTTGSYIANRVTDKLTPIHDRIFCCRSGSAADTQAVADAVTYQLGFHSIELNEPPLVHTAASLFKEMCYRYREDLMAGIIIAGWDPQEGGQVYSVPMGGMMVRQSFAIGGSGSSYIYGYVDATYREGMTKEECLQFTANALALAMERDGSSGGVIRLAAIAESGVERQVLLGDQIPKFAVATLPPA", "T2 sequence (Q99436 44-277)": "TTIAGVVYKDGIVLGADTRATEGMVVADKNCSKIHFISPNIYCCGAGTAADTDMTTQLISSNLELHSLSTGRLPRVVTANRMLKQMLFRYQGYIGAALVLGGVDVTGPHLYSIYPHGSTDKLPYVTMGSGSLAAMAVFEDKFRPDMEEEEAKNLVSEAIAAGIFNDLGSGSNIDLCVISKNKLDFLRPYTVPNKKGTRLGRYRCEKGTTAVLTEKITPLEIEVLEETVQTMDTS", "experiment": "PROTEASOMEGLO assay of proteasome inhibition in MM cells", "type": "cell-based", "settings": "read-out: IC50 for sites: Casp-L; NCI-H929 cells, 6 hours; >>30 no inhibition at 30 μM, >30 inhibition 10-50% at 30 μM"}, "[4]": {"biological_target": "β5 (chymotrypsin-like site) of proteasome in HEK-293T cells (Homo sapiens, UniProt P20618+P28074)", "experiment": "Competition assay in living HEK-293T cells with activity-based probe", "type": "cell-based", "settings": "HEK-293 cells treated 4 hours, >50 inhibition between 10 and 50% at 50 μM, read-out: IC50 for sites: Chym-L", "protocol": "as §1, with “BODIPY-TMR-epoxomicin.” for “BODIPY-TMR-epoxomicin. Subsequently, the medium was removed and the cells were washed with PBS and harvested.”, “PRISM software.” left out\nHuman embryonic kidney cells (some 1×10^6) were cultured in 6-well plates in DMEM containing 10% fetal calf serum, 10 units/mL penicillin and 10 μg/mL streptomycin in a 7% CO2 humidified incubator at 37° C. overnight. […] The supernatant was collected and the protein concentration was determined by the Bradford assay. […]"}, "[5]": {"settings": "NCI-H929 cells, 6 hours, >>30 no inhibition at 30 μM, >30 inhibition 10-50% at 30 μM"}}, "note": "“And” between values parts separate entries of the source, which are not always exact repeats. Equal entries are not always repeated. Structures can show the parent of a compound that is named as a salt. Where two headings read alike, the source gives them in different places.", "data": [{"compound": "CC(C)C[C@H](NC(=O)[C@H](Cc1ccc(N)cc1)NC(=O)[C@H](Cc1ccccc1)N=[N+]=[N-])C(=O)N[C@H](/C=C/S(C)(=O)=O)Cc1ccc(CN)cc1", "note": "[Compound 51, N3-Phe-Phe (4-NH2. TFA)-Leu-Phe (4-CH2NH2.TFA)-VS]", "values": [{"measurement": "IC50", "setting": "[1]", "result": "3.6 µM and 7.2 µM"}]}, {"compound": "Cc1c(O)cccc1C(=O)N[C@H](C(=O)N[C@@H](CO)C(=O)N[C@H](/C=C/S(C)(=O)=O)Cc1ccc(CN)cc1)C(C)C", "note": "[Compound 48, HMB-Val-Ser-Phe (4-CH2NH2)-VS]", "values": [{"measurement": "IC50", "setting": "[1]; [5]", "result": 13, "unit": "µM"}, {"measurement": "IC50", "setting": "[1]; RPMI-8226 cells, 6 hours, >>30 no inhibition at 30 μM, >30 inhibition 10-50% at 30 μM", "result": 15, "unit": "µM"}]}, {"compound": "CC(C)C[C@H](NC(=O)[C@H](Cc1ccccc1)N=[N+]=[N-])C(=O)N[C@@H](CC(C)C)C(=O)N[C@H](/C=C/S(C)(=O)=O)Cc1ccc(CN)cc1", "note": "[Compound 4a, N3Phe-Leu-Leu-Phe (4-CH2NH2) VS]", "values": [{"measurement": "IC50", "setting": "[2]", "result": 16, "unit": "µM"}]}, {"compound": "CC(C)C[C@H](NC(=O)[C@H](Cc1ccncc1)NC(=O)[C@H](Cc1ccccc1)N=[N+]=[N-])C(=O)N[C@H](/C=C/S(C)(=O)=O)Cc1ccc(CN)cc1", "note": "[Compound 50, N3-Phe-Ala (4-pyridine)-Leu-Phe (4-CH2NH2-TFA)-VS]", "values": [{"measurement": "IC50", "setting": "[1]; [5]", "result": 10.5, "unit": "µM"}, {"measurement": "IC50", "setting": "[3]", "result": "> 30", "unit": "µM"}, {"measurement": "IC50", "setting": "[4]", "result": "> 50", "unit": "µM"}]}]}
